Among the data in paper PMC9516332 (Frontiers in Oncology, 2022) are IC50 values, retold here.

The chains behind the UniProt entries cited, without tags or fusion partners. Residues count along the entry.
UniProt P04626, 23-1255: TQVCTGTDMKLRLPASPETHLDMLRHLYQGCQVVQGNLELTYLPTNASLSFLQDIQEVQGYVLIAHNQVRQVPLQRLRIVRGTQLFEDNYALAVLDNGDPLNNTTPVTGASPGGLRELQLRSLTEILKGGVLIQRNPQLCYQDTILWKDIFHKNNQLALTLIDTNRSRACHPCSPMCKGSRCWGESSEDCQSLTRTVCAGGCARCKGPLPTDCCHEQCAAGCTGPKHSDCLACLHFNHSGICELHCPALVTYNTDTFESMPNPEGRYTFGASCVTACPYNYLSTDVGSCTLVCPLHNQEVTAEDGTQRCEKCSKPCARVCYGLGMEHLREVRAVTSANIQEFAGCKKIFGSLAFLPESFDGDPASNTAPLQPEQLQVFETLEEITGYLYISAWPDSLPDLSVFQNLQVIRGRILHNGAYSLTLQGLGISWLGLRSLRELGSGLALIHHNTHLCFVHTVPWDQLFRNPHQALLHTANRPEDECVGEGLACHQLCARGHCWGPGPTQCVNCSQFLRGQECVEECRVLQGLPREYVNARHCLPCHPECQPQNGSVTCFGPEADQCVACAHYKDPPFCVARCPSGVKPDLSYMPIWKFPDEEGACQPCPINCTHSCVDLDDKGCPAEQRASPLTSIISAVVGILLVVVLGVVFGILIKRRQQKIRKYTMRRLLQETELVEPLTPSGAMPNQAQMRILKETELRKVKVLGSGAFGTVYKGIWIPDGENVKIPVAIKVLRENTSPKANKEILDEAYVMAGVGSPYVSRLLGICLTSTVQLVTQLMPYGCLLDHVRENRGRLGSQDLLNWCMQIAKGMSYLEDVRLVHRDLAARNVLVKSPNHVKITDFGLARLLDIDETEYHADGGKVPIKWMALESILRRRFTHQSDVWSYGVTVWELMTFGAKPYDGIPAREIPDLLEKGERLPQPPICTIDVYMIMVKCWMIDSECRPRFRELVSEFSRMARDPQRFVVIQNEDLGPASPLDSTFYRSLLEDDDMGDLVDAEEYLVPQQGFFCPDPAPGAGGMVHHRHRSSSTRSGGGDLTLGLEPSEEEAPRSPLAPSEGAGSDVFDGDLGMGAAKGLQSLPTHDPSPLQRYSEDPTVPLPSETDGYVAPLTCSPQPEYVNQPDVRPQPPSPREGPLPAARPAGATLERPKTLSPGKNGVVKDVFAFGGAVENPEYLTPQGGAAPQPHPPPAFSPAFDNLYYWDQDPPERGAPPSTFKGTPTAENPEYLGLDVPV
UniProt Q15303, 26-1308: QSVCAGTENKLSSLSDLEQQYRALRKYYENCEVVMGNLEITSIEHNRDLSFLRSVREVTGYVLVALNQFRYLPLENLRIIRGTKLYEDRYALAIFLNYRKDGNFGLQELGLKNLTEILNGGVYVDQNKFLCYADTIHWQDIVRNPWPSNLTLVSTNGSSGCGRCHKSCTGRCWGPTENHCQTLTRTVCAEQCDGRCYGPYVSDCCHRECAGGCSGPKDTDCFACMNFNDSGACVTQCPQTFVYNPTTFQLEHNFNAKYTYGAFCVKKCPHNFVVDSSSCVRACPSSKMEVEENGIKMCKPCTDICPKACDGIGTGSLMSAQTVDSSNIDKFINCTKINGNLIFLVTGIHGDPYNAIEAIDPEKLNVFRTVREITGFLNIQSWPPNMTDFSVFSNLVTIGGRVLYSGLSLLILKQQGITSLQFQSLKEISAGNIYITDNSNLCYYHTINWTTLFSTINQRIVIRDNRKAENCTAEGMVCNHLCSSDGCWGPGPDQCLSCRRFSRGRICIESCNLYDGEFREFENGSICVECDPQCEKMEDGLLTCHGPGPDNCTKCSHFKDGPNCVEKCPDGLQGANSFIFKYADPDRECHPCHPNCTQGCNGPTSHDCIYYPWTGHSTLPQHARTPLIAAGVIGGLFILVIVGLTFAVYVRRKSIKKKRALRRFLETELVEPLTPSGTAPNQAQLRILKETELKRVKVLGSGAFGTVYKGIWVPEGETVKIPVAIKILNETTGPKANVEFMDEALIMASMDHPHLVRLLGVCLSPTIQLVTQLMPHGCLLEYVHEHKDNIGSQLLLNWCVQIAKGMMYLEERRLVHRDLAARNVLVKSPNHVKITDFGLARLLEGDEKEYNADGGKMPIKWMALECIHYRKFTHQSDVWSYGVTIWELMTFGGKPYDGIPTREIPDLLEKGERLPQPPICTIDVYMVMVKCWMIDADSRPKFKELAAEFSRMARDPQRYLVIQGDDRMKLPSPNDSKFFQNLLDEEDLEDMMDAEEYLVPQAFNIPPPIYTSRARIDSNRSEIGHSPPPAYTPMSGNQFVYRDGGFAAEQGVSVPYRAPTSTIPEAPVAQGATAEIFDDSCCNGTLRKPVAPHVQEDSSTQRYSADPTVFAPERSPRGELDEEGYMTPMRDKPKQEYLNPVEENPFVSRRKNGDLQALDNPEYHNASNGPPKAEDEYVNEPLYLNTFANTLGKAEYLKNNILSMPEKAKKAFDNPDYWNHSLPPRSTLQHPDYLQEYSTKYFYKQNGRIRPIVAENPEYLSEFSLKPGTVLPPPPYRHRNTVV

One experiment concerns AP-1060 (ETV6-NTRK3). In words: Cell viability assay. As to conditions: read-out: IC50 in cell proliferation assay.
The subject of a further experiment is 134 cancer cell lines. Kind of experiment: Cell viability assay (ATPlite, 72 hours), IC50 on cancer cell line panel. As to conditions: L-82, read-out: IC50 in cell proliferation assay, L-82 cell line (NPM1-ALK).
The next experiment has as its target T1, HER2 (Homo sapiens, UniProt P04626).
T1 construct: purchased Carna Biosciences (only by web pointer)
In words: Biochemical kinase assay (MSA), IC50.

Another experiment has as its target T2, HER4 (Homo sapiens, UniProt Q15303).
T2 construct: purchased Carna Biosciences (only by web pointer)
Kind of experiment: Biochemical kinase assay (MSA), IC50.

Each structure is given as a SMILES string.

For `CCN1CCN(c2ccc(Nc3cc(N(C)C(=O)Nc4c(Cl)c(OC)cc(OC)c4Cl)ncn3)cc2)CC1` [infigratinib], the IC50 in the experiment on AP-1060 (ETV6-NTRK3) and with 134 cancer cell lines was 3620 nM throughout.
As to `COc1cc2ncnc(Nc3ccc(F)c(Cl)c3)c2cc1NC(=O)/C=C/CN1CCCCC1` [dacomitinib], the figures for the IC50 on HER2 and on HER4 were 6 nM and 0.6 nM, respectively.
